Source: PubChem BioAssay AID932 (The Scripps Research Institute Molecular Screening Center, 2007)
Only a part is listed here, and it is no random draw. Active and inactive are the calls of the source.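 The calls were made as follows: active = activation above the screen-wide mean activation plus 3 SD (cut at about 130% in these data); inactive = the rest.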

Assay: potentiators of IFN-gamma driven STAT1 reporter – cell-based, HTS, luciferase reporter, primary screen (AID 932);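 also: raw ratio to IFN-gamma control signal so 100% means no change and 0% no light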
Conditions: NIH 3T3 STAT1-luciferase reporter, luminescence, at 5.5 µM, hits give high values, 100% = IFN-gamma alone, no compound

| SMILES | activation (% of control) |
| --- | --- |
| CN1CCC(Nc2cccc(F)c2)CC1 | inactive: 104% |
| COc1ccc(CN(CCCl)CCCl)cc1Cl | inactive: 89.3% |
| CN(C)c1cccc(C(=O)NCC2(N3CCCCC3)CCCCC2)c1 | inactive: 99.1% |
| CC(C)c1ccc(NC2CCN(C(=O)OC(C)(C)C)CC2)cc1 | inactive: 120% |
| COc1ccc(NC2CCN(C(=O)OC(C)(C)C)CC2)cc1 | inactive: 108% |
| CN1CCN(CCOC(=O)C(O)(c2ccccc2)c2ccccc2)CC1 | inactive: 103% |
| O=C(NCC1(N2CCOCC2)CCCCC1)c1cc(=O)[nH]c2ccccc12 | inactive: 100% |
| O=C(NCC1(N2CCCCC2)CCCCC1)c1cccc([N+](=O)[O-])c1 | inactive: 98.2% |
| N#CC1(Nc2ccccc2)CCN(CCc2ccccc2)CC1 | inactive: 104% |
| COc1ccc(NC2CCN(CCc3ccccc3)CC2)c(OC)c1 | inactive: 104% |
| CCOC(=O)N1CCC(Nc2ccc(OC)cc2)CC1 | inactive: 85.8% |
| O=C(OC1CN2CCC1CC2)C1c2ccccc2Oc2ccccc21 (stereo not given) | inactive: 112% |
| O=C(NCC1(N2CCOCC2)CCCCC1)c1cc2ccccc2o1 | inactive: 97.6% |
| COc1ccc(C(=O)NCC2(N3CCCCC3)CCCCC2)c(OC)c1OC | inactive: 97.2% |
| CCC(CO)(C(=O)OC1CN2CCC1CC2)c1ccccc1 (stereo not given) | inactive: 106% |
| COc1cc(OC)cc(C(=O)NCC2(N3CCOCC3)CCCCC2)c1 | inactive: 97.5% |
| CC(C)(C)OC(=O)N1CCC(Nc2ccccc2)CC1 | inactive: 98.2% |
| CCOc1ncccc1C(=O)NCC1(N2CCOCC2)CCCCC1 | inactive: 96.5% |
| CN(C)c1ccc(C(=O)NCC2(N3CCCCC3)CCCCC2)cc1 | inactive: 106% |
| CCN1CCC(Nc2cccc(F)c2)CC1 | inactive: 94.8% |
| c1ccc(CN2CCC(Nc3ccccc3)CC2)cc1 | inactive: 101% |
| N#Cc1ccc(C(=O)NCC2(N3CCCCC3)CCCCC2)cc1 | inactive: 106% |
| O=C(OC1CN2CCC1CC2)C1c2ccccc2C=Cc2ccccc21 (stereo not given) | inactive: 94.3% |
| N/C(=N\O)c1c(N)no[n+]1[O-] | inactive: 101% |
| COc1ccc(C(=O)NCC2(N3CCOCC3)CCCCC2)cc1OC | inactive: 101% |
